Ab-14 heavy chain CDR variants: yeast mating affinities

Data: MIT Lincoln Laboratory AlphaSeq set, Li et al. 2023, doi:10.1038/s41467-023-39022-2, as distributed in FLAb.

All variants were tested on one target, the spike HR2 peptide PDVDLGDISGINAS (SARS-CoV-2).

Parent: Ab-14, a human scFv built as VH, the linker GGGGSGGGGSGGGGS, VL. Only the CDRs of the heavy chain vary.
VH: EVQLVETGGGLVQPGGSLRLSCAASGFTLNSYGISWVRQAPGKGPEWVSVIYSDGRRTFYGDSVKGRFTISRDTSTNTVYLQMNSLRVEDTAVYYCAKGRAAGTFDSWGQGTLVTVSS
VL: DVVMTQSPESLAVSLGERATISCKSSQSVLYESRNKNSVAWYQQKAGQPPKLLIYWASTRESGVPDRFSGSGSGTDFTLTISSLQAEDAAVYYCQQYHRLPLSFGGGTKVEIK

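The parent was found by panning a naive human phage display library on the peptide. Designed CDR sequences, proposed from the first random library and measured here. Several design methods are mixed in this list. The assay is AlphaSeq: two haploid yeast populations carry antibody and antigen on their surface. Binding brings cells together so that they mate, and sequencing counts the barcode pairs among the diploids. A regression on co-assayed BCL2-family reference pairs converts the normalised counts of each replicate to an apparent Kd. The assay was run in six technical replicates.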

Each variant is given by its three heavy chain CDRs, as the data file delimits them; those of the parent are GFTLNSYGIS, VIYSDGRRTFYGDSVK, GRAAGTFDS. Numbers give log10(Kd / nM), so 0 is 1 nM and 3 is 1 µM. Smaller is tighter. Averages over replicates are reported, and they cover detected replicates only. A pair that was not seen in any replicate is written "nd"; this usually means weak binding, but a binder can also be missed. In the paper, a design with two or fewer of six values counts as a poor binder.

The variant GFDLNSYGIS, VIYSDGRRTFYSDRVK, GEAAGTFDT showed 0.63 (6 of 6 replicates).
The variant GFDLDKYGIS, VIYADGRRSVYADDVK, GMLGATFGV showed nd (0 of 6 replicates).
The variant GQDLNEYGIS, VIYADGLRQAYSENVK, GNIFQFDDV showed nd (0 of 6 replicates).
The variant GFTLNEYGIS, VIYADGRRTFYADSVK, GNQAGTFDV showed -0.42 (6 of 6 replicates).
The variant GFHLNSYGKS, VIYADGRRTFYSDSVK, GRAYGTNKS showed nd (0 of 6 replicates).
The variant GFDLEDYGIS, VIYADGKRKAYAQKFK, GRIGGTFVD showed 0.56 (2 of 6 replicates).
The variant GFDLNEYGIS, VIYADGRRTAYADSVK, GENAGTFDA showed 0.16 (6 of 6 replicates).
The variant GFDINEYGIS, VIYADGRRTFYADSVK, GQTAGTFDE showed -0.44 (6 of 6 replicates).
The variant GFDLTEYGIS, VIYADGRRTQYQDAVK, GLNGDMIVV showed nd (0 of 6 replicates).
The variant GFPLESYGIS, VIYSDGKRTFYGDSVK, GEAAGTFDS showed 0.20 (6 of 6 replicates).
The variant GFDLDEYGIS, VIYADGMRTAYANDVK, GEVAGTFDV showed -0.48 (6 of 6 replicates).
The variant GFNLNSYGIS, VIYSDGRRTFYADSVK, GKTAGTFDS showed 0.13 (6 of 6 replicates).
The variant GFTLNSYGIS, VIYSDGRRTFYGDAVK, GEAAGTFDK showed 0.46 (1 of 6 replicates).
The variant GFEIEEYGIS, VIYADGQRKSYINSVK, GTVGVTVMY showed nd (0 of 6 replicates).
The variant GFDINEYGVS, VIYADGNRTMYQDQVK, GIEGGSFVL showed nd (0 of 6 replicates).
The variant GKGLDEYGVS, VIYADGVRKSYVDDVK, GGIAGNFLY showed nd (0 of 6 replicates).
The variant GFELNSYGIS, VIYSDGRRTFYGDSVR, GQAAGTFDS showed 1.34 (6 of 6 replicates).

Continued, with the values leading:

nd (0 of 6 replicates): GFTLNQYGIS, VIYSDGRRTFYGDSVK, GRAQGTFDS.
-0.27 (6 of 6 replicates): GFDLNEYGIS, VIYADGKRTAYSDSVK, GEVAGTFDT.
-0.56 (6 of 6 replicates): GFDLNEYGIS, VIYADGRRTFYADSVK, GNTAGTFSS.
-0.46 (6 of 6 replicates): GFDLNEYGIS, VIYADGKRSAYADSVK, GNNAGTFDV.
2.20 (4 of 6 replicates): GFTLNDYGIS, VIYSDGKRTFYIDSVK, GRTAGTFDS.
-0.37 (6 of 6 replicates): GFDLNEYGIS, VIYADGRRTFYADSVK, GEMAGTFDI.
nd (0 of 6 replicates): GFALESYGIS, VIYSDGRRTFYGDSVK, GQAAGLFDS.
-0.25 (5 of 6 replicates): GFDLDEYGIS, VIYADGRRTFYADSVK, GEIAGTFFS.
-0.62 (6 of 6 replicates): GFDLNEYGIS, VIYADGRRTAYIDSVK, GEAAGTFDL.
0.78 (6 of 6 replicates): GFTLDQYGIS, VIYSDGRRTFYADSVK, GRAAGTFDS.
0.17 (6 of 6 replicates): GFSLNSYGIS, VIYSDGRRTFYGDRVK, GVEAGTFDS.
1.40 (1 of 6 replicates): GFTLNSYGIS, VIYSDGRRTFYSDSVK, GHAAGTFDN.
-0.51 (6 of 6 replicates): GFDLNEYGIS, VIYADGVRTFYADSVK, GEIAGTFDF.
1.30 (6 of 6 replicates): GFNLNDYGIS, VIYSDGRRTFYSDSVK, GRVAGTGDS.
0.98 (6 of 6 replicates): GFDLNEYGIS, VIYADGMRTAYEDKVK, GTFLNAGWL.
-0.12 (6 of 6 replicates): GFDLNEYGIS, VIYADGKRTAYVDSVK, GNNAGTFDV.
0.30 (6 of 6 replicates): GFSLNEYGIS, VIYSDGRRTFYGDSVK, GKSAGTFDS.
0.15 (6 of 6 replicates): GFDLNSYGIS, VIYSDGRRTFYDDSVK, GRVAGTFDS.

Empty control strains, which show no peptide, gave a signal in 1% of pairings with all heavy chain designs; the median was 2.08 and 95% of these signals were weaker than 0.84. No background was subtracted. The range of this assay differs from that of the first round, and the authors advise against merging the two. Of ten entries with the parent sequence, four were seen in most replicates (averages 0.34 to 2.37), three in one and three in none, so single entries are noisy.